Assay outcomes as filed in PubChem BioAssay.
An excerpt weighted towards active compounds, which were near 13% of everything screened.
ALDH1A1 inh – blocks purified human ALDH1A1 activity | 220,000 compounds, 7.3% hits | P00352 | Potency, µM (titrated, usually from 75.3 µM), inactives show at the highest dose activity, negative = inhibition, actives largely listed as inhibitors | Purified ALDH1A1, NADH fluorescence, propionaldehyde substrate; active means well fitted inhibition curve with a large enough effect, not every such curve was filed as active; inconclusive means small, poorly fitted or top-dose-only effect, or another doubt; inactive means no such curve, though single readings can be large or run the other way;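 further: potency means the concentration at half of the fitted maximal effect; plate controls were no enzyme wells and a reference inhibitor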
G9a block – blocks human histone lysine methyltransferase G9a; G9a H3K9 monomethylation, AlphaScreen, 2 h; Q96KQ7; 350,000 compounds, 8.8% hits; Potency, µM (doses to about 102 µM), inactives show at the highest dose activity, negative = inhibition, usual class: inhibitors; further: potency means the concentration at half of the fitted maximal effect; on the % scale 0 is the no-effect control and ±100 the full control effect; nearly all actives have a fitted effect of over 75% in size
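Compounds were preincubated with 20 nM G9a for 15 min, after which biotinylated H3K9 peptide (500 nM) and SAM (20 uM) started a 2 h room-temperature reaction. Monomethylated product was quantified by antibody-based AlphaScreen chemiluminescence.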
Sfp PPTase inh – qHTS Assay for Inhibitors of Bacillus subtilis Sfp phosphopantetheinyl transferase (PPTase) | 4'-phosphopantetheinyl transferase ffp (Bacillus subtilis), Q9F4F7 | AID 1490, 2009 | actives 3.5% (n = 310,000) | Biochemical Sfp PPTase activity, qHTS | Potency, µM, for inactives: max response, negative = inhibition, most hits filed as inhibitors; active = well fitted inhibition curve with a large enough effect; inconclusive = small, poorly fitted or top-dose-only effect, or another doubt; inactive = no such curve, though single readings can be large or run the other way;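 also: the enzyme is Sfp with the accession as filed and its product quenches rhodamine fluorescence; potency is read from the fitted curve at half-maximal effect; 0% = enzyme reaction without inhibitor and -100% = no enzyme wells; top concentration of the series not given in the record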
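Sfp 15 nM + cpd, 15 min RT; start w/ rhodamine-CoA 5 uM, BHQ-2-YbbR 12.5 uM (final); 50 mM Hepes pH 7.6, 10 mM MgCl2, 0.01% NP-40, 0.01% BSA; read 525/598 nm at 0 and 30 min.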
KDM4E inh – JMJD2E (human) inhibition; B2RXH2; JMJD2E catalytic domain, FDH-coupled NADH fluorescence (FDH is formaldehyde dehydrogenase); Potency, µM (doses to about 57.1 µM), for inactives: at the highest dose activity change, negative = inhibition, hits mostly inhibitors; 230,000 compounds, 1.6% hits; AID 2147; active means well fitted inhibition curve with a large enough effect, not every such curve was filed as active; inconclusive means small, poorly fitted or top-dose-only effect, or another doubt; inactive means no such curve, though single readings can be large or run the other way;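 further: potency means the concentration at half of the fitted maximal effect; 0% = wells with enzyme and -100% = buffer wells without enzyme; nearly all actives have a fitted effect of over 50% in size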
LMNA splice mod – modulators of lamin A splicing; HeLa LMNA splicing GFP/RFP minigene ratio, 48 h; Potency, µM (series often up to 46.1 µM), for the others: top-dose ratio change, negative = inhibition, usual class: inhibitors; 200,000 compounds, 0.01% hits; AID 1487; active means well fitted inhibition curve with a large enough effect in the signal ratio, with a control signal flat, not every such curve was filed as active; inconclusive means small, poorly fitted or top-dose-only effect, or effect the other way, or a change in a side signal; the % refers to the signal ratio; further: potency means the concentration at half of the fitted maximal effect; on the % scale 0 is the no-effect control and ±100 the full control effect
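S3 HeLa stable clones carrying a lamin A-EGFP splicing minigene plus DsRed2 were seeded at 600 cells/well in Opti-MEM with 2% FBS, pin-dosed and incubated 48 h at 37°C. Acumen cytometry (488 nm) gave the GFP/RFP total-intensity ratio.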
miR-21 reporter – raises the signal of a miR-21 reporter | Potency, µM (doses to about 38.3 µM), for inactives: top-dose reporter change, positive = more light | HeLa miR-21 FLuc reporter, luciferase, 48 h | AID 2288 | 340,000 tested, under 10 active; active = well fitted rising curve with a large enough effect; inconclusive = small, poorly fitted or top-dose-only effect; inactive = no such curve, though single readings can be large or run the other way;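 also: % of control where 0% means no effect; miR-21 action dims this reporter so a rising signal means less miR-21 action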
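Compounds were titrated across several concentrations (up to approximately 40 uM) and incubated 48 hours with HeLa miR-21-FLuc reporter cells (miR-21 target sequence downstream of FLuc, endogenous miR-21). Readout was firefly luciferase luminescence after lytic detection reagent.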
Active calls of the source: *; ? = inconclusive; · = not tested or not shown; [ ] = remark or other dose. Unless noted, the call rests on the fitted dose curve; in most records, active means well fitted curve in the direction sought with a large enough effect; inconclusive means small, poorly fitted or top-dose-only effect, or another doubt; inactive means no such curve, though single readings can be large; an effect the other way counts as inactive or inconclusive.

1: O=c1cc(CN2CCN(Cc3ccc(F)cc3)C(CCO)C2)[nH]c2ccccc12 (stereo not drawn)
2: NC(N)=N[C@@H](CCC(=O)O)C(=O)O
3: CCc1cccc(NC(c2ccccc2)c2nnc(-c3ccccc3F)o2)c1 (stereo not drawn)
4: COc1ccc2ncc(S(=O)(=O)c3ccccc3)c(N3CCC4(CC3)OCCO4)c2c1
5: CCCCc1nc(SCC(=O)N2CCCC2)c2c(=O)n(C)c(=O)n(C)c2n1
6: Cc1nc(NCCC(C)C)c2nnn(Cc3ccccc3)c2n1
Screen / compound no.	1	2	3	4	5	6
ALDH1A1 inh	·	-4%	·	7.9µM*	·	·
G9a block	25µM*	22%[59 µM]	9%[59 µM]	?	16%	-10%
Sfp PPTase inh	-1%	·	·	6%	2%	15%
KDM4E inh	·	7%	·	-3%	·	·
LMNA splice mod	·	?	·	?	·	·
miR-21 reporter	-3%	·	-16%	-1%	0%	0%

7: CN(C)CCCNc1c2c(nc3ccccc13)CCC2
8: COCCNc1c2c(nc3ccccc13)CCC2
9: COc1ccc(-n2c(C)nc3cc(C(=O)NC4CCCC4)ccc32)cc1
10: Cc1c(C(=O)N(C)Cc2ccccc2)oc2ccc(S(=O)(=O)N3CCCC3)cc12
11: CCN(CC)S(=O)(=O)c1ccc2oc(C(=O)NCc3ccc(C)cc3)c(C)c2c1
12: Cc1c(C(=O)NCc2ccc3c(c2)OCO3)oc2ccc(S(=O)(=O)N3CCCC3)cc12
Screen / compound no.	7	8	9	10	11	12
ALDH1A1 inh	·	·	·	22µM*	-7%	?
G9a block	40µM*	-10%	-19%[59 µM]	-19%[59 µM]	?	-48%[59 µM]
Sfp PPTase inh	4%	14%	·	-4%	25µM*	?
KDM4E inh	·	·	·	-5%	-5%	35µM*
LMNA splice mod	·	·	7%[46 µM]	?	?	-11%
miR-21 reporter	24%	-1%	4%	12%	15%	?

13: Cc1ccc(S(=O)(=O)N2CCN(CC(=O)NC(=O)NCc3ccccc3)CC2)cc1C
14: Cc1cc(S(=O)(=O)N2CCN(CC(=O)N(C)Cc3ccccc3)CC2)ccc1Br
15: Cc1c(C(=O)NCc2ccccc2)oc2ccc(S(=O)(=O)N3CCCC3)cc12
16: Cc1c(C(=O)NCc2ccc3c(c2)OCO3)oc2ccc(S(=O)(=O)N3CCCCC3)cc12
17: CCCCN(CCCC)S(=O)(=O)c1ccc2oc(C(=O)NCc3ccc(C)cc3)c(C)c2c1
18: CC(C)CN1CCc2nc(-c3ccccc3)c3c(c2CC1)COC(C)C3 (stereo not drawn)
Screen / compound no.	13	14	15	16	17	18
ALDH1A1 inh	2%	·	?	-3%	·	9%[13.5 µM]
G9a block	-8%[59 µM]	56µM*	20%	0%	-22%[59 µM]	·
Sfp PPTase inh	-2%	·	12%	16%	·	27%
KDM4E inh	-3%	·	2%	?	·	·
LMNA splice mod	7%	·	-4%	9%	?	·
miR-21 reporter	-10%	·	-11%	22%	14%	·

19: CCOC(=O)c1ccc2c(c1)N(Cc1ccc(F)cc1Cl)C(=O)c1ccccc1S2
20: COc1ccc(-c2oc3ncn4nc(-c5ccccc5Br)nc4c3c2-c2ccc(OC)cc2)cc1
21: O=C(CSc1nc2ccsc2c(=O)n1Cc1ccccc1Cl)NCc1ccc(F)cc1
22: COc1cc(CN(C(=O)COc2ccccc2Cl)c2ccccn2)cc(OC)c1OC
23: CC1=C(C(=O)Nc2ccccc2C)C(c2cccnc2)n2nc(SCc3ccccc3F)nc2N1 (stereo not drawn)
24: CN(C(=O)CSc1nc2ccccc2n1CC(=O)N(C)C1CCCCC1)c1ccccc1
Screen / compound no.	19	20	21	22	23	24
ALDH1A1 inh	·	·	·	·	·	·
G9a block	8%[59 µM]	6%[59 µM]	4%[59 µM]	1%[59 µM]	-15%[59 µM]	20%[59 µM]
Sfp PPTase inh	·	·	·	·	·	·
KDM4E inh	·	·	·	·	·	·
LMNA splice mod	?	·	·	-15%[46 µM]	·	5%[46 µM]
miR-21 reporter	6%	-1%	5%	-7%	8%	1%

25: Cc1ccc(CNC(=O)c2sc3ccc(S(=O)(=O)N4CCCCC4)cc3c2N)cc1
26: COc1ccc2cc(S(=O)(=O)NC3CC(C)(C)NC(C)(C)C3)ccc2c1
27: O=[N+]([O-])c1cccc(NC(=S)Nc2nc(-c3ccc(Cl)cc3Cl)cs2)c1
28: COC(=O)c1ccc(NC(=S)NC(=O)c2c(Cl)cnn2C)cc1
29: COC(=O)c1ccc(NC(=O)c2c(Br)cnn2C)cc1
30: CCOC(=O)N1CCN(Cc2c(O)ccc3ccccc23)CC1
Screen / compound no.	25	26	27	28	29	30
ALDH1A1 inh	-1%	·	·	2%	·	?
G9a block	45µM*	46%	5%	?	7.9µM*	?
Sfp PPTase inh	-2%	10%	-16%	50µM*	35µM*	-5%
KDM4E inh	?	·	·	-2%	·	?
LMNA splice mod	-11%	·	·	-1%	·	·
miR-21 reporter	0%	-3%	-4%	-12%	-26%	2%

31: NCc1c(O)ccc2ccccc12
32: CCOC(=O)C1CCN(Cc2c(O)ccc3ccccc23)CC1
33: Oc1ccc2ccccc2c1CN1CCCC1
34: O=c1oc2ccccc2c(O)c1CN1CCCCC1
35: COc1ccc(-n2ncc(C(=O)NCc3ccco3)c2C2CCN(C(=O)OC(C)(C)C)CC2)cc1
36: Cc1c(O)c(CN2CCCC2)cc2c1oc(=O)c1ccccc12
Screen / compound no.	31	32	33	34	35	36
ALDH1A1 inh	?	?	?	14µM*	·	?
G9a block	7.9µM*	3.5µM*	6.3µM*	?	-25%[59 µM]	22µM*
Sfp PPTase inh	13%	-9%	6%	21%	·	14%
KDM4E inh	?	?	32µM*	4%	·	-22%
LMNA splice mod	?	-4%	?	?	?	-1%
miR-21 reporter	-2%	-7%	2%	-9%	1%	-25%

37: O=C(C1CCCO1)N1CCN(Cc2c(O)ccc3ccccc23)CC1 (stereo not drawn)
38: Oc1ccc2ccccc2c1Cc1c(O)ccc2ccccc12
39: Oc1ccc2ccccc2c1SSc1c(O)ccc2ccccc12
40: Cc1c(O)c(CN2CCCC2)cc2c3c(c(=O)oc12)CCC3
41: CCOc1ccc(CNC(=O)C2CCN(C3=NS(=O)(=O)C(c4ccc(C)cc4)=C3CC)CC2)cc1
42: COc1ccc(N(C)C(=O)C2CCCN2S(=O)(=O)c2cccc3nsnc23)cc1 (stereo not drawn)
Screen / compound no.	37	38	39	40	41	42
ALDH1A1 inh	?	16%[13.5 µM]	·	?	·	·
G9a block	1.4µM*	·	6.7µM*	-28%	-36%[59 µM]	27%
Sfp PPTase inh	-22%	·	·	-14%	·	8%
KDM4E inh	?	·	·	?	·	·
LMNA splice mod	-7%	·	·	-3%	·	·
miR-21 reporter	6%	·	·	-10%	26%	-6%

43: COc1ccc(C(=O)NC(=S)Nc2ccc(CN3CCOCC3)cc2)cc1OC
44: CCc1ccc(C(=O)NC(=S)Nc2ccc(N3CCOCC3)cc2)cc1
45: O=C(NC(=S)Nc1ccc(N2CCOCC2)cc1)c1cccc(Cl)c1
46: CNC(=S)Nc1cccc(C(C)=O)c1
47: CC(=O)c1cccc(NC(=S)Nc2ccc(F)cc2)c1
48: S=C(Nc1ccc(N2CCOCC2)cc1)Nc1ccc2nc(-c3ccco3)c(-c3ccco3)nc2c1
49: O=C(CN1CCc2cc3c(cc2C1)OCCCO3)Nc1c(F)cccc1F
50: CC(=O)c1ccc(NC(=S)Nc2ccc(N3CCOCC3)cc2)cc1
51: CC(=O)c1cccc(NC(=S)NC(=O)c2ccccc2)c1
Screen / compound no.	43	44	45	46	47	48	49	50	51
ALDH1A1 inh	·	11µM*	?	?	·	7.1µM*	·	22µM*	?
G9a block	?	6.3µM*	28µM*	-17%	50µM*	32µM*	74%	45µM*	?
Sfp PPTase inh	4%	1%	-3%	17%	3%	-30%	8%	?	?
KDM4E inh	5%	-1%	-1%	-3%	·	?	·	?	-9%
LMNA splice mod	·	-7%[46 µM]	0%	7%[46 µM]	·	-13%	·	?	4%
miR-21 reporter	6%	-10%	-31%	-2%	-9%	-19%	7%	-13%	-45%

Part of the list above in order of molar mass, largest number first.
49: O=C(CN1CCc2cc3c(cc2C1)OCCCO3)Nc1c(F)cccc1F
50: CC(=O)c1ccc(NC(=S)Nc2ccc(N3CCOCC3)cc2)cc1
46: CNC(=S)Nc1cccc(C(C)=O)c1
Screen / compound no.	49	50	46
ALDH1A1 inh	·	22µM*	?
G9a block	74%	45µM*	-17%
Sfp PPTase inh	8%	?	17%
KDM4E inh	·	?	-3%
LMNA splice mod	·	?	7%[46 µM]
miR-21 reporter	7%	-13%	-2%
